Assay results taken from patent US11096930B2, “Substituted imidazopyridine compounds as inhibitors of indoleamine 2,3-dioxygenase and/or tryptophan-2,3-dioxygenase” (IOMet Pharma Ltd., priority 2016, dated 2021).

Chains of the proteins cited; added tags and fusions are not shown. Lines headed by an entry give the natural chain unless they say otherwise; changes in a name come on top.
UniProt P48775: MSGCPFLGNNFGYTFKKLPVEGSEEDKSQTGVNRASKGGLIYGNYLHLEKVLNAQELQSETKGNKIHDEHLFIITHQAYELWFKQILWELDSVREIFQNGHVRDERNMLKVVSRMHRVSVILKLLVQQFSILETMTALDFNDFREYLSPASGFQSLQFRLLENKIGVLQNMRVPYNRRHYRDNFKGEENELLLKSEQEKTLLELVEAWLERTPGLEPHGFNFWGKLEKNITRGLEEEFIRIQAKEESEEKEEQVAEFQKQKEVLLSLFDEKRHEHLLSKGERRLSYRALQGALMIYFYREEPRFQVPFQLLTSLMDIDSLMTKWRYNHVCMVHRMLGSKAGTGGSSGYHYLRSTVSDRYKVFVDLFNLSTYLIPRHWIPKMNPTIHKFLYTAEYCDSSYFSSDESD

Tests used:
TDO [1] = biological target: T1, TDO (Homo sapiens (Human), UniProt P48775); assay: A172 (TDO) cell based assay for detection of kynurenine; settings: pIC50 A172 (TDO) cell based assay
Description: (§1) Exemplary compounds disclosed herein were prepared, and tested to determine their effect as IDO and/or TDO inhibitors. Two different assays were employed: 1. a cell-based assay for detecting the effect of test compounds on kynurenine production in two different cancer cell types. This assay utilized cancer cells which expressed either TDO or IDO and as such was used as a means of testing compound activity at these two enzymes in a cell-based context. 2. a TDO and IDO biochemical coupled assay which utilized recombinantly produced and purified TDO and IDO enzymes in combination with the enzyme formamidase. This coupled enzyme system allowed conversion of N-formylkynurenine produced by TDO or IDO activity to kynurenine which was then quantified by fluorescence following addition of Erhlich's Reagent. The protocols for these are set out below.
A172 and SKOV3 Cell Based Assays for Detection of Kynurenine Produced by TDO and/or IDO
A172 (human glioblastoma) and SKOV3 (human ovarian adenocarcinoma) cells were seeded in a 96 well plate at 30,000 or 40,000 cells per well respectively in phenol red-free RPMI supplemented with 10% FCS, 2 mM L-glutamine and 500 μM L-tryptophan. IDO expression was induced in the SKOV3 cells by the addition of 500 ng/ml IFN-γ. Cells were incubated at 37° C. with or without the addition of test compound. […]

TDO [2] = biological target: T1, TDO; assay: hTDO biochemical coupled assay; settings: 330 μM L-tryptophan
Description: as §1
TDO and IDO Biochemical Coupled Assay
Recombinant human IDO or TDO was incubated in 50 mM KPO4 (pH 7.0), 0.5 mM EGTA, 0.5 mM EDTA, 0.05% Triton™ X100, 20 mM ascorbate, 10 μM methylene blue, 500 U/ml catalase, 50 μg/ml KynB (kynurenine formamidase). […] After incubation for 17 minutes at room temperature the reactions were stopped by the addition of Erhlich's reagent and incubated at room temperature for 5 minutes before the fluorescence was read.

CC1(C)CN(c2cc(C(F)(F)F)cc3cncn23)CCC12NC(=O)NC2=O (centres unmarked) [Example 5, 6,6-Dimethyl-8-(7-(trifluoromethyl)imidazo[1,5-a]pyridin-5-yl)-1,3,8-triazaspiro[4.5]decane-2,4-dione]
IC50 (TDO [1]): > 10 µM
pIC50 hTDO biochemical coupled assay (TDO [2]): 5.52
